From patent US20140100156A1 (SANOFI, priority 2012, published 2014)
Where two headings read alike, the source gives them in different places.

Amino acid sequences for entries named in this document (tags omitted). Residues count along the entry.
UniProt P43220, 24-463: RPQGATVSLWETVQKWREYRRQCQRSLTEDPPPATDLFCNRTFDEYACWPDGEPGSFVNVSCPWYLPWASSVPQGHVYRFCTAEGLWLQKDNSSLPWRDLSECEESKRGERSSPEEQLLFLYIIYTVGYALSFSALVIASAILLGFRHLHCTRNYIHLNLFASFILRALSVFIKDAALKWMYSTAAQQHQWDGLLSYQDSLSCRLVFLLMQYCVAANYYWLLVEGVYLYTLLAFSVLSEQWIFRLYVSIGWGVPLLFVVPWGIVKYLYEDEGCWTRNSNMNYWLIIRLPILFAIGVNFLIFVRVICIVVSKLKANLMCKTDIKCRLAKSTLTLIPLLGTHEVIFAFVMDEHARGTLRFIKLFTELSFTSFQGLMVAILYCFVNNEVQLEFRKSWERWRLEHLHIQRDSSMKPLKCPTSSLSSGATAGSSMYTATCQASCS
UniProt P47871, 26-477: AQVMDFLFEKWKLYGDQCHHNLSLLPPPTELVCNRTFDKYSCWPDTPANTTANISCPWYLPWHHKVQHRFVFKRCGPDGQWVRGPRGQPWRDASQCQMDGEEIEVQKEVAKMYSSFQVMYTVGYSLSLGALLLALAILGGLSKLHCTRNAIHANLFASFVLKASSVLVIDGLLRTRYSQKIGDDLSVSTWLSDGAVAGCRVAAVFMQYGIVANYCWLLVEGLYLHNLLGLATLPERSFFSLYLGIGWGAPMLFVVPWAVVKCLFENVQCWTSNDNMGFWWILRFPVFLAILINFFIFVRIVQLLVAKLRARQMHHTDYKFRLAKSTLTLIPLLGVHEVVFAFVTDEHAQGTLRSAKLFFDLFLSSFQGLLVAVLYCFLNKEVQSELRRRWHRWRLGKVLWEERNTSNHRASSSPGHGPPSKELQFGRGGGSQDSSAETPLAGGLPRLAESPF

Assays:
human GLP-1 receptor = biological target: T1, human GLP-1 receptor (Homo sapiens, UniProt P43220); test: cAMP response (HTRF) of HEK-293 cells stably expressing human GLP-1 receptor; assay type: cell-based; details: Table 5, cAMP, HEK-293
T1 construct: expressed in transfected cells; host or cells: HEK-293

human glucagon receptor = biological target: T2, human glucagon receptor (Homo sapiens, UniProt P47871); test: cAMP response (HTRF) of HEK-293 cells stably expressing human glucagon receptor; assay type: cell-based; details: Table 5, cAMP, HEK-293
T2 construct: expressed in transfected cells; host or cells: HEK-293

CCCCCCCC/C=C\CCCCCCCCC(=O)N[C@@H](CCC(=O)NCCCC[C@H](NC(=O)[C@H](CCC(N)=O)NC(=O)[C@H](CCCCN)NC(=O)[C@H](CO)NC(=O)[C@H](CC(C)C)NC(=O)[C@H](CC(=O)O)NC(=O)[C@H](CO)NC(=O)[C@@H](NC(=O)[C@H](Cc1ccccc1)NC(=O)[C@@H](NC(=O)CNC(=O)[C@H](CCC(N)=O)NC(=O)[C@@H](CO)NC(=O)[C@@H](N)Cc1c[nH]cn1)[C@@H](C)O)[C@@H](C)O)C(=O)N[C@@H](CCC(=O)O)C(=O)N[C@@H](CO)C(=O)N[C@@H](CCCNC(=N)N)C(=O)N[C@@H](C)C(=O)N[C@@H](C)C(=O)N[C@@H](CCC(N)=O)C(=O)N[C@@H](CC(=O)O)C(=O)N[C@@H](Cc1ccccc1)C(=O)N[C@H](C(=O)N[C@@H](CCC(=O)O)C(=O)N[C@@H](Cc1c[nH]c2ccccc12)C(=O)N[C@@H](CC(C)C)C(=O)N[C@@H](CCCCN)C(=O)N[C@@H](C)C(=O)NCC(=O)NCC(=O)N1CCC[C@H]1C(=O)N[C@@H](CO)C(=O)N[C@@H](CO)C(=O)NCC(=O)N[C@@H](C)C(=O)N1CCC[C@H]1C(=O)N1CCC[C@H]1C(=O)N1CCC[C@H]1C(=O)N[C@@H](CO)C(N)=O)[C@@H](C)CC)C(=O)O [compound 61]
EC50 (human GLP-1 receptor; read-out: EC50 hGLP-1R): 5.3 pM
EC50 (human glucagon receptor; read-out: EC50 hGlucagon-R): 16 pM

CCCCCCCCCCOc1ccc(C(=O)N[C@@H](CCC(=O)NCCCC[C@H](NC(=O)[C@H](CCC(N)=O)NC(=O)[C@H](CCCCN)NC(=O)[C@H](CO)NC(=O)[C@H](CC(C)C)NC(=O)[C@H](CC(=O)O)NC(=O)[C@H](CO)NC(=O)[C@@H](NC(=O)[C@H](Cc2ccccc2)NC(=O)[C@@H](NC(=O)CNC(=O)[C@H](CCC(N)=O)NC(=O)[C@@H](CO)NC(=O)[C@@H](N)Cc2c[nH]cn2)[C@@H](C)O)[C@@H](C)O)C(=O)N[C@@H](CCC(=O)O)C(=O)N[C@@H](CO)C(=O)N[C@@H](CCCNC(=N)N)C(=O)N[C@@H](C)C(=O)N[C@@H](C)C(=O)N[C@@H](CCC(N)=O)C(=O)N[C@@H](CC(=O)O)C(=O)N[C@@H](Cc2ccccc2)C(=O)N[C@H](C(=O)N[C@@H](CCC(=O)O)C(=O)N[C@@H](Cc2c[nH]c3ccccc23)C(=O)N[C@@H](CC(C)C)C(=O)N[C@@H](CCCCN)C(=O)N[C@@H](C)C(=O)NCC(=O)NCC(=O)N2CCC[C@H]2C(=O)N[C@@H](CO)C(=O)N[C@@H](CO)C(=O)NCC(=O)N[C@@H](C)C(=O)N2CCC[C@H]2C(=O)N2CCC[C@H]2C(=O)N2CCC[C@H]2C(=O)N[C@@H](CO)C(N)=O)[C@@H](C)CC)C(=O)O)cc1 [compound 62]
EC50 (human GLP-1 receptor; EC50 hGLP-1R): 3.9 pM
EC50 (human glucagon receptor; EC50 hGlucagon-R): 10.6 pM

CCCCCCCCCCCCCCCCCC(=O)N[C@@H](CCC(=O)NCCCC[C@H](NC(=O)[C@H](CCC(N)=O)NC(=O)[C@H](CCCCN)NC(=O)[C@H](CO)NC(=O)[C@H](CC(C)C)NC(=O)[C@H](CC(=O)O)NC(=O)[C@H](CO)NC(=O)[C@@H](NC(=O)[C@H](Cc1ccccc1)NC(=O)[C@@H](NC(=O)CNC(=O)[C@H](CCC(N)=O)NC(=O)[C@@H](CO)NC(=O)[C@@H](N)Cc1c[nH]cn1)[C@@H](C)O)[C@@H](C)O)C(=O)N[C@@H](CCC(=O)O)C(=O)N[C@@H](CO)C(=O)N[C@@H](CCCNC(=N)N)C(=O)N[C@@H](C)C(=O)N[C@@H](C)C(=O)N[C@@H](CCC(N)=O)C(=O)N[C@@H](CC(=O)O)C(=O)N[C@@H](Cc1ccccc1)C(=O)N[C@H](C(=O)N[C@@H](CCC(=O)O)C(=O)N[C@@H](Cc1c[nH]c2ccccc12)C(=O)N[C@@H](CC(C)C)C(=O)N[C@@H](CCCCN)C(=O)N[C@@H](C)C(=O)NCC(=O)NCC(=O)N1CCC[C@H]1C(=O)N[C@@H](CO)C(=O)N[C@@H](CO)C(=O)NCC(=O)N[C@@H](C)C(=O)N1CCC[C@H]1C(=O)N1CCC[C@H]1C(=O)N1CCC[C@H]1C(=O)N[C@@H](CO)C(N)=O)[C@@H](C)CC)C(=O)O [compound 65]
EC50 (human GLP-1 receptor; read-out: EC50 hGLP-1R): 5 pM
EC50 (human glucagon receptor; read-out: EC50 hGlucagon-R): 5.6 pM

CCCCCCCCCCCCCCCC(=O)N[C@@H](CCC(=O)NCCCC[C@H](NC(=O)[C@H](CCC(N)=O)NC(=O)[C@H](CCCCN)NC(=O)[C@H](CO)NC(=O)[C@H](CC(C)C)NC(=O)[C@H](CC(=O)O)NC(=O)[C@H](CO)NC(=O)[C@@H](NC(=O)[C@H](Cc1ccccc1)NC(=O)[C@@H](NC(=O)CNC(=O)[C@H](CCC(N)=O)NC(=O)[C@@H](CO)NC(=O)[C@@H](N)Cc1c[nH]cn1)[C@@H](C)O)[C@@H](C)O)C(=O)N[C@@H](CC(=O)O)C(=O)N[C@@H](CO)C(=O)N[C@@H](CCCNC(=N)N)C(=O)N[C@@H](CCCNC(=N)N)C(=O)N[C@@H](C)C(=O)NC(C)(C)C(=O)N[C@@H](CC(=O)O)C(=O)N[C@@H](Cc1ccccc1)C(=O)N[C@H](C(=O)N[C@@H](CCC(=O)O)C(=O)N[C@@H](Cc1c[nH]c2ccccc12)C(=O)N[C@@H](CC(C)C)C(=O)N[C@@H](CCCCN)C(=O)N[C@@H](C)C(=O)NCC(=O)NCC(=O)N1CCC[C@H]1C(=O)N[C@@H](CO)C(=O)N[C@@H](CO)C(=O)NCC(=O)N[C@@H](C)C(=O)N1CCC[C@H]1C(=O)N1CCC[C@H]1C(=O)N1CCC[C@H]1C(=O)N[C@@H](CO)C(N)=O)[C@@H](C)CC)C(=O)O [compound 67]
EC50 (human GLP-1 receptor; read-out: EC50 hGLP-1R): 15.7 pM
EC50 (human glucagon receptor; read-out: EC50 hGlucagon-R): 3 pM

CCCCCCCCCCCCCCCC(=O)N[C@@H](CCC(=O)NCCCC[C@H](NC(=O)[C@H](CCC(N)=O)NC(=O)[C@H](CCCCN)NC(=O)[C@H](CO)NC(=O)[C@H](CC(C)C)NC(=O)[C@H](CC(=O)O)NC(=O)[C@H](CO)NC(=O)[C@@H](NC(=O)[C@H](Cc1ccccc1)NC(=O)[C@@H](NC(=O)CNC(=O)[C@H](CCC(N)=O)NC(=O)[C@@H](CO)NC(=O)[C@@H](N)Cc1c[nH]cn1)[C@@H](C)O)[C@@H](C)O)C(=O)N[C@@H](CCC(=O)O)C(=O)N[C@@H](CO)C(=O)N[C@@H](CCCNC(=N)N)C(=O)N[C@@H](CCCNC(=N)N)C(=O)N[C@@H](C)C(=O)N[C@@H](CCC(N)=O)C(=O)N[C@@H](CC(C)C)C(=O)N[C@@H](Cc1ccccc1)C(=O)N[C@H](C(=O)N[C@@H](CCC(=O)O)C(=O)N[C@@H](Cc1c[nH]c2ccccc12)C(=O)N[C@@H](CC(C)C)C(=O)N[C@@H](CCCCN)C(=O)N[C@@H](C)C(=O)NCC(=O)NCC(=O)N1CCC[C@H]1C(=O)N[C@@H](CO)C(=O)N[C@@H](CO)C(=O)NCC(=O)N[C@@H](C)C(=O)N1CCC[C@H]1C(=O)N1CCC[C@H]1C(=O)N1CCC[C@H]1C(=O)N[C@@H](CO)C(N)=O)[C@@H](C)CC)C(=O)O [compound 68]
EC50 (human GLP-1 receptor; read-out: EC50 hGLP-1R): 7.9 pM
EC50 (human glucagon receptor; read-out: EC50 hGlucagon-R): 5.7 pM

CCCCCCCCCCCCCCCC(=O)NCCCC[C@H](NC(=O)[C@H](CCC(N)=O)NC(=O)[C@H](CCCCN)NC(=O)[C@H](CO)NC(=O)[C@H](CC(C)C)NC(=O)[C@H](CC(=O)O)NC(=O)[C@H](CO)NC(=O)[C@@H](NC(=O)[C@H](Cc1ccccc1)NC(=O)[C@@H](NC(=O)CNC(=O)[C@H](CCC(N)=O)NC(=O)[C@@H](CO)NC(=O)[C@@H](N)Cc1c[nH]cn1)[C@@H](C)O)[C@@H](C)O)C(=O)N[C@@H](CCC(=O)O)C(=O)N[C@@H](CO)C(=O)N[C@@H](CCCNC(=N)N)C(=O)N[C@@H](CCCNC(=N)N)C(=O)N[C@@H](C)C(=O)N[C@@H](CCC(N)=O)C(=O)N[C@@H](CC(C)C)C(=O)N[C@@H](Cc1ccccc1)C(=O)N[C@H](C(=O)N[C@@H](CCC(=O)O)C(=O)N[C@@H](Cc1c[nH]c2ccccc12)C(=O)N[C@@H](CC(C)C)C(=O)N[C@@H](CCCCN)C(=O)N[C@@H](C)C(=O)NCC(=O)NCC(=O)N1CCC[C@H]1C(=O)N[C@@H](CO)C(=O)N[C@@H](CO)C(=O)NCC(=O)N[C@@H](C)C(=O)N1CCC[C@H]1C(=O)N1CCC[C@H]1C(=O)N1CCC[C@H]1C(=O)N[C@@H](CO)C(N)=O)[C@@H](C)CC [compound 69]
EC50 (human GLP-1 receptor; read-out: EC50 hGLP-1R): 44.8 pM
EC50 (human glucagon receptor; read-out: EC50 hGlucagon-R): 52.4 pM

CCCCCCCCCCCCCCCC(=O)N[C@@H](CCC(=O)NCCC[C@H](NC(=O)[C@H](CCC(N)=O)NC(=O)[C@H](CCCCN)NC(=O)[C@H](CO)NC(=O)[C@H](CC(C)C)NC(=O)[C@H](CC(=O)O)NC(=O)[C@H](CO)NC(=O)[C@@H](NC(=O)[C@H](Cc1ccccc1)NC(=O)[C@@H](NC(=O)CNC(=O)[C@H](CCC(N)=O)NC(=O)[C@@H](CO)NC(=O)[C@@H](N)Cc1c[nH]cn1)[C@@H](C)O)[C@@H](C)O)C(=O)N[C@@H](CCC(=O)O)C(=O)N[C@@H](CO)C(=O)N[C@@H](CCCNC(=N)N)C(=O)N[C@@H](CCCNC(=N)N)C(=O)N[C@@H](C)C(=O)N[C@@H](CCC(N)=O)C(=O)N[C@@H](CC(=O)O)C(=O)N[C@@H](Cc1ccccc1)C(=O)N[C@H](C(=O)N[C@@H](CCC(=O)O)C(=O)N[C@@H](Cc1c[nH]c2ccccc12)C(=O)N[C@@H](CC(C)C)C(=O)N[C@@H](CCCCN)C(=O)N[C@@H](C)C(=O)NCC(=O)NCC(=O)N1CCC[C@H]1C(=O)N[C@@H](CO)C(=O)N[C@@H](CO)C(=O)NCC(=O)N[C@@H](C)C(=O)N1CCC[C@H]1C(=O)N1CCC[C@H]1C(=O)N1CCC[C@H]1C(=O)N[C@@H](CO)C(N)=O)[C@@H](C)CC)C(=O)O [compound 71]
EC50 (human GLP-1 receptor; read-out: EC50 hGLP-1R): 20.5 pM
EC50 (human glucagon receptor; read-out: EC50 hGlucagon-R): 5.6 pM

CCCCCCCCCCCCCCCC(=O)N[C@@H](CCC(=O)NCC[C@H](NC(=O)[C@H](CCC(N)=O)NC(=O)[C@H](CCCCN)NC(=O)[C@H](CO)NC(=O)[C@H](CC(C)C)NC(=O)[C@H](CC(=O)O)NC(=O)[C@H](CO)NC(=O)[C@@H](NC(=O)[C@H](Cc1ccccc1)NC(=O)[C@@H](NC(=O)CNC(=O)[C@H](CCC(N)=O)NC(=O)[C@@H](CO)NC(=O)[C@@H](N)Cc1c[nH]cn1)[C@@H](C)O)[C@@H](C)O)C(=O)N[C@@H](CCC(=O)O)C(=O)N[C@@H](CO)C(=O)N[C@@H](CCCNC(=N)N)C(=O)N[C@@H](CCCNC(=N)N)C(=O)N[C@@H](C)C(=O)N[C@@H](CCC(N)=O)C(=O)N[C@@H](CC(=O)O)C(=O)N[C@@H](Cc1ccccc1)C(=O)N[C@H](C(=O)N[C@@H](CCC(=O)O)C(=O)N[C@@H](Cc1c[nH]c2ccccc12)C(=O)N[C@@H](CC(C)C)C(=O)N[C@@H](CCCCN)C(=O)N[C@@H](C)C(=O)NCC(=O)NCC(=O)N1CCC[C@H]1C(=O)N[C@@H](CO)C(=O)N[C@@H](CO)C(=O)NCC(=O)N[C@@H](C)C(=O)N1CCC[C@H]1C(=O)N1CCC[C@H]1C(=O)N1CCC[C@H]1C(=O)N[C@@H](CO)C(N)=O)[C@@H](C)CC)C(=O)O [compound 72]
EC50 (human GLP-1 receptor; read-out: EC50 hGLP-1R): 25.9 pM
EC50 (human glucagon receptor; read-out: EC50 hGlucagon-R): 386 pM
